# Literature values as cited in PMC7503831 (Molecules, 2020).
# The chains behind the UniProt entries cited, without tags or fusion partners.
# UniProt P41143, whole entry: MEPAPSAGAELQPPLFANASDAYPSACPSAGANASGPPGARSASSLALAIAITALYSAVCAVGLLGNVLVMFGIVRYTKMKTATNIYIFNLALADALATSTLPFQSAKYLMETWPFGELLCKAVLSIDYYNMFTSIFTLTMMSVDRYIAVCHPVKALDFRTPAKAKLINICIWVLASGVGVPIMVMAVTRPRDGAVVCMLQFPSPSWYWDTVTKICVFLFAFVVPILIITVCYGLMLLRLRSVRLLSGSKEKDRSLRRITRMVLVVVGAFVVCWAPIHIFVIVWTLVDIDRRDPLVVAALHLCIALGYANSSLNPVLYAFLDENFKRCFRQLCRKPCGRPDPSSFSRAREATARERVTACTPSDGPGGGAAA
# Marks after values point to notes of the source that are not given here.
# Experiments:
# human DOR [1] = molecular target: T1, human DOR (Homo sapiens, UniProt P41143); conditions: cited from earlier work
# human DOR [2] = molecular target: T1, human DOR; conditions: read-out: Binding Affinity, Ki (DOR) (95% CI); [3H]DPDPE, CHO cells expressing human DOR; cited from earlier work
smiles,measurement,setting,value
C=CCN(CC=C)[C@@H](Cc1ccc(O)cc1)C(=O)NC(C)(C)C(=O)NC(C)(C)C(=O)N[C@@H](Cc1ccccc1)C(=O)N[C@@H](CC(C)C)C(=O)O,EC50,"human DOR [1]; read-out: Functional Activity for DOR, EC50 (95% CI), [35S]GTPγS, human DOR recombinant CHO cell membrane",114 nM
same,"Functional Activity for DOR, Emax (standard)","human DOR [1]; standards: DPDPE (1 μM) DOR agonist, ICI-174,864 (10 μM) DOR inverse agonist",−100 ^f %
same,Ki,human DOR [2],422 nM
